From ChEMBL document CHEMBL5257017, “Small Molecule CXCR3 Antagonists” (J Med Chem, 2016) come the findings set out here.

Chains of the proteins cited; added tags and fusions are not shown.
UniProt P25024, whole entry: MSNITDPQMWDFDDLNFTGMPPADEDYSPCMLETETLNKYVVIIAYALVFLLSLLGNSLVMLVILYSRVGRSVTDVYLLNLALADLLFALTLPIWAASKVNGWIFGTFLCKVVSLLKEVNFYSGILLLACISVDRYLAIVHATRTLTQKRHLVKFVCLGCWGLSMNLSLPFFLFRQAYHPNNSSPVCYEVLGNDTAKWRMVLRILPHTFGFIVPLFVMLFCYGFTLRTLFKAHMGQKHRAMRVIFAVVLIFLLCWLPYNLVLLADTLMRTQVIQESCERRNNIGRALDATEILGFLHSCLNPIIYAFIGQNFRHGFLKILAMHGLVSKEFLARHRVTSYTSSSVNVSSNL

This test has as its target C-X-C chemokine receptor type 1 (Homo sapiens, UniProt P25024). Kind of test: Antagonist activity at CXCR1 (unknown origin).

Molecules are shown by their SMILES.

With `Cc1ccc(C(Nc2c(Nc3cccc(C(=O)N(C)C)c3O)c(=O)c2=O)C2(C)CCCO2)o1` (stereo unspecified), inhibition was half-maximal at 251 nM (IC50).
